What was measured:
[1] = water, room temperature
[2] = Stability testing of wound healing gel prototype formulations per Study #1062; assay type: physicochemical; details: HEC versus Pluronic gelling agent; six prototypes of Study #1062
Procedure: As used herein, “analytical methods” includes the following techniques that are useful for determining the identity and quantity of the ACT peptide in a particular formulation: NMR, HPLC, Amino Acid Composition and Molecular Weight Determinations, and Specific Optical Rotation.
The first study was conducted per protocol #1062. During this study, 6 prototype formulations were evaluated as outlined in Table 4. The purposes of the study were to select a proper pH range for the product and also to select a proper gelling agent. The API concentration used for this study was 0.072% which was the initial targeted product concentration. Phosphate buffers at pH 5, 6, and 7 and two gelling agents, Pluronic and Hydroxyethylcellulose (HEC) were evaluated. The quantity of API required for the formulations was calculated as follows: Batch size for each formulation=12×5 g=60 g or 70 g API quantity for 6 formulations=6×70×0.072%/82.4%=0.37 g API purity value=82.4%
Five formulations, formulae 2414-10 to -14, were gelled with Pluronic 127, which was assumed to be the preferred gelling agent. Only one formulation, 2414-15, was gelled with HEC as a back-up. The available stability data indicated the following conclusions.

Biotin-Ahx-Arg-Gln-Pro-Lys-lle-Trp-Phe-Pro-Asn-Arg-Arg-Lys-Pro-Trp-Lys-Lys-Arg-Pro-Arg-Pro-Asp-Asp-Leu-Glu-lle-OH [Peptide 328967]
Solubility [1]: Soluble in water at room temperature | Comparative stability of API / formulations (in words) [2]: more stable in HEC gel than Pluronic gels
